Protein sequences, listed by entry. Tags and fused reporters are not part of them. Lines headed by an entry give the natural chain unless they say otherwise; changes in a name come on top.
UniProt P48736: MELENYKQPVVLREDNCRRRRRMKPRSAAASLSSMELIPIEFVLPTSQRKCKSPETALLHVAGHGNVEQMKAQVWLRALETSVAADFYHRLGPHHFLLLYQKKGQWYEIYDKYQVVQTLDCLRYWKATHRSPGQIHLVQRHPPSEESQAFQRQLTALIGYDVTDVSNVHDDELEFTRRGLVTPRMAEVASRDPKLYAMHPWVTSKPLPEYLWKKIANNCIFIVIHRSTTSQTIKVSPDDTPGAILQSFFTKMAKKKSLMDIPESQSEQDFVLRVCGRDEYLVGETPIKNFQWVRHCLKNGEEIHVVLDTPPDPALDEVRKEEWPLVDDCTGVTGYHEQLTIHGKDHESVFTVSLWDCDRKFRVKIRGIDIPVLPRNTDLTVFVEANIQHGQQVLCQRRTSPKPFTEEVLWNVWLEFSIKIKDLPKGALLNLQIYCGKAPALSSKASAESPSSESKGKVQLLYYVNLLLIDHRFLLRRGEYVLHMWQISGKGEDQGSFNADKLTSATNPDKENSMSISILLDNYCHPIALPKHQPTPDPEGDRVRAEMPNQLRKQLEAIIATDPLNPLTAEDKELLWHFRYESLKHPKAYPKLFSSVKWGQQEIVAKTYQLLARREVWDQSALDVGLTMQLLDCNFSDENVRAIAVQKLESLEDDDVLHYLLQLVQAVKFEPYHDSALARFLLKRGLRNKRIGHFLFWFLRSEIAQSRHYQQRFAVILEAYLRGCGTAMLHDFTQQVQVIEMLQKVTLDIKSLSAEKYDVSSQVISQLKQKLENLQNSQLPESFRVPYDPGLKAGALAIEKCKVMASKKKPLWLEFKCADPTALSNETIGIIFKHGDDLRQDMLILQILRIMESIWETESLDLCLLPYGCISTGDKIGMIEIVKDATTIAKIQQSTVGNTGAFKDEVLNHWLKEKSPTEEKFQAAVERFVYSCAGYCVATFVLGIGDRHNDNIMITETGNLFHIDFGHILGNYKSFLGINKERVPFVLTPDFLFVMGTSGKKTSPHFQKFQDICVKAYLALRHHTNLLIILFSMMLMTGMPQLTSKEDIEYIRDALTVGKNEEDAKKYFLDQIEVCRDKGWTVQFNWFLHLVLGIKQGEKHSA

In patent US10919914B2, “Heterocyclic compounds and uses thereof” (Infinity Pharmaceuticals, Inc., priority 2016, dated 2021):

Biological target: PI3K γ (Homo sapiens (Human), UniProt P48736)
Test: PI3-Kinase HTRF assay
Type: biochemical
Source text: A PI3-Kinase HTRF® assay kit (cat No. 33-016) purchased from Millipore Corporation is used to screen compounds provided herein. This assay uses specific, high affinity binding of the GRP1 pleckstrin homology (PH) domain to PIP3, the product of a Class 1A or 1B PI3 Kinase acting on its physiological substrate PIP2. During the detection phase of the assay, a complex is generated between the GST-tagged PH domain and biotinylated short chain PIP3. The biotinylated PIP3 and the GST-tagged PH domain recruited fluorophores (Streptavidin-Allophycocyanin and Europium-labeled anti-GST respectively) to form the fluorescence resonance energy transfer (FRET) architecture, generating a stable time-resolved FRET signal. […]
PI3 Kinase α, γ or δ activity is assayed using the PI3 Kinase HTRF® assay kit (catalogue No. 33-016) purchased from Millipore Corporation. […] The assay is carried out in 384-well format and detected using a Perkin Elmer EnVision Xcite Multilabel Reader. […] IC50 values are determined using a nonlinear regression model available in GraphPad Prism 5.
Other commercial kits or systems for assaying PI3-K activities are available. […] The plate is sealed, incubated for 1 hour at room temperature, and then read on an appropriate plate reader. Data is analyzed and IC50s are generated using GraphPad Prism 5.

**Q.** Which IC50 does the source give for `C[C@H](NC(=O)c1c(N)nn2ccccc12)c1cc2cccc(Cl)c2c(=O)n1-c1ccccc1` [Compound 31] here?
**A.** The IC50 was 100 to 500 nM.
